Measurements as given in patent US12570666B2, “Furoindazole derivatives” (Bayer Aktiengesellschaft, priority 2019, dated 2026).
pIC50: −log10 of the molar value.

Sequences of proteins named here, by UniProt entry; tags and fusion partners are left off.
UniProt Q9NQS5, whole entry: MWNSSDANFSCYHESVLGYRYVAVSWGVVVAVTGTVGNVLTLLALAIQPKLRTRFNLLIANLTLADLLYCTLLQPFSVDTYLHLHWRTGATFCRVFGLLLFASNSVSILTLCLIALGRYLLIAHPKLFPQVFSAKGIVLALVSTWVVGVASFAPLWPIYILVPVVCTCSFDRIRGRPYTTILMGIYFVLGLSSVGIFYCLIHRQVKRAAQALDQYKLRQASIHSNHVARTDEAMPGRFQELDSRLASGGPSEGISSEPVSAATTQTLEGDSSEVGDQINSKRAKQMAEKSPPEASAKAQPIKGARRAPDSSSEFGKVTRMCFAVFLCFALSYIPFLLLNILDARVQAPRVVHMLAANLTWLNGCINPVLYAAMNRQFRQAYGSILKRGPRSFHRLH

Target: human GPR84 receptor (Homo sapiens, UniProt Q9NQS5)
Test: cAMP HTRF assay for identification of cellular GPR84 antagonists
Details: read-out: GPR84 IC50; CHO-K1 cells stably expressing human GPR84; Forskolin + agonist 6-OAU (EC80); average or median values
Text: cAMP HTRF® Assay for Identification of Cellular GPR84 Antagonists
By using a Homogenous Time-Resolved Fluorescence (HTRF®) based assay (#62AM5PEJ, Cisbio, Condolet, France) the inhibition of the Gi-coupled GPR84 receptor can be detected. CHO-K1 cells stably expressing human GPR84 receptor (purchased from DiscoveRx, now Eurofins) were used and treated with Forskolin (F6886, Sigma, Germany) to stimulate membrane adenylyl cyclases and thereby unspecific cAMP formation. Activation of the Gi-coupled GPR84 by a natural or small molecule agonist (e.g. 6-n-octyl aminouracile, inhouse) results in inhibition of cellular cAMP formation which can be released again by antagonists to this receptor. Detection and quantification of cellular cAMP levels in this HTRF assay is achieved by interaction between a fluorescent cAMP tracer (cAMP-d2) and an Eu-cryptate labelled anti-cAMP antibody. Following excitation at 337 nm this pairing allows for the generation of a fluorescence resonance energy transfer (FRET) between the partners and results in FRET induced emissions at 665 nm and 620 nm, the latter representing background signal by Eu-cryptate labelled anti-cAMP antibody. Maximal signal is obtained in the absence of any cellular cAMP (no competition for the binding of the tracer to the antibody). Given the combination of the Gi coupling properties of GPR84 and the competitive nature of the detection system agonist treatment should result in an increase in the HTRF signal due to lowered cAMP levels. Any signal decrease in the presence of Forskolin, agonist and compound is indicative of antagonist mediated abrogation of GPR84 signalling.
For the assay, frozen aliquots of CHO-K1 cells expressing hGPR84 (prepared by acCELLerate, Hamburg, Germany) were thawed and a cell suspension (1.67E+06 cells/mL) in assay media (Ham's F12 Nutrient Mix, Thermo Fisher Scientific, Waltham, USA; 5% fetal calf serum, Biomol, Hamburg, Germany) containing cAMP-d2 (dilution 1:20, supplied with the kit #62AM5PEJ, Cisbio, Condolet, France) was prepared. After recovery of cells for 20 minutes at 37° C., 3 μL/well cell suspension including cAMP-d2 were added to a pre-dispensed assay plate (Greiner Bio-One, Kremsmuenster, Austria) containing 50 nl/well test compound in 100% DMSO or 100% DMSO as control. This was followed by a 30 minutes incubation step at room temperature. The stimulation time was started by addition of 2 μL/well assay media containing 2.5×EC80 agonist 6-OAU and 2.5×EC90 Forskolin (negative control: 2.5×EC90 Forskolin in assay media) and was continued for 30 minutes at room temperature. The reaction was stopped by addition of 3 μL/well lysis buffer containing cAMP Eu-Cryptate antibody (dilution 1:20) (both supplied with the kit #62AM5PEJ, Cisbio, Condolet, France). To enable complete lysis, plates were incubated for 60 minutes at room temperature before measurement in an HTRF reader, e.g. a PHERAstar (BMG Labtech, Ortenberg, Germany).
From the fluorescence emissions at 665 nm (FRET) and at 620 nm (background signal of Eu-cryptate) the ratio (emission at 665 nm divided by emission at 620 nm×10000) was calculated and the data were normalized (reaction without test compound, only 100% DMSO=0% inhibition; all other assay components except agonist=100% inhibition). […]

**Q.** How did the pIC50 turn out when Cc1ccc(CNC(=O)c2oc3c(c2C)-c2nn(CC4COc5ncccc5O4)cc2CC3)cc1 (single isomer, unassigned) [53-2] was run?
**A.** The pIC50 was 7.14.

**Q.** With Cc1c(C(=O)NC[C@@H]2COCCO2)oc2c1-c1nn(Cc3cccnc3)cc1C1(CC1)C2 as the compound, how does the pIC50 read?
**A.** Its pIC50 is 7.92.

**Q.** Cc1c(C(=O)NC[C@@H]2CCCO2)oc2c1-c1nn(Cc3cncc(F)c3)cc1CC2 was tested. Which pIC50 did it give?
**A.** Its pIC50 is 6.67.

**Q.** With Cc1ccc(CNC(=O)c2oc3c(c2C)-c2nn(CC4COc5ncccc5O4)cc2CC3)cc1 (single isomer, unassigned) [53-1] as the compound, how does the pIC50 read?
**A.** Its pIC50 is 7.66.

**Q.** How did the pIC50 turn out when Cc1c(C(=O)NC[C@@H]2CCCO2)oc2c1-c1nn(Cc3cccnc3)cc1C1(CC1)C2 was run?
**A.** Its pIC50 is 8.05.
